{"sequences": {"note": "Protein sequences, listed by entry. Tags and fused reporters are not part of them.", "UniProt P27907, whole entry, looked up": "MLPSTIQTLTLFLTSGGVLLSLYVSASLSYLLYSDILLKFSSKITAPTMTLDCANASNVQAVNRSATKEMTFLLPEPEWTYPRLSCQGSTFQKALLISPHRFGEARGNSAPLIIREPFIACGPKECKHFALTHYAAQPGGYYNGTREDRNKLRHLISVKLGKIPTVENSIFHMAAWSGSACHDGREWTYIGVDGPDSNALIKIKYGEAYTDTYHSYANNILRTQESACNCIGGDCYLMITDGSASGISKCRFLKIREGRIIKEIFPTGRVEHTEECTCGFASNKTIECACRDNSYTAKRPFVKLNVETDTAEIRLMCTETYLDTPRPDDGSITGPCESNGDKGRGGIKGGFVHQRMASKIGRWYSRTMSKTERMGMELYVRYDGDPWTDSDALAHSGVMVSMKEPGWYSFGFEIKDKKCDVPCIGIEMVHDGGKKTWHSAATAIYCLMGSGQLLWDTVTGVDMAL"}, "source": "patent US6680054B1", "about": "(priority 1996, dated 2004)", "target": "whole virus influenza neuraminidase, B/Victoria/02/87 (Influenza B virus, UniProt P27907)", "conditions": "read-out: inhibition constants (IC50), B/Vic/02/87", "data": [{"substance": "GG167-Bovine Serum Albumin-Biotin conjugate [Compound 3a]", "values": [{"measurement": "IC50", "value": 20, "unit": "nM"}]}]}
